# The entries are a selection whose mix differs from that of the whole data set. The source made the active and inactive calls.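 The calls were made as follows: active = activation above the mean activation of all tested compounds plus 3 SD, per screening run (cut at about 20% in these data); inactive = the rest.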
# Chains of the proteins cited; added tags and fusions are not shown.
# UniProt P37288, whole entry, looked up: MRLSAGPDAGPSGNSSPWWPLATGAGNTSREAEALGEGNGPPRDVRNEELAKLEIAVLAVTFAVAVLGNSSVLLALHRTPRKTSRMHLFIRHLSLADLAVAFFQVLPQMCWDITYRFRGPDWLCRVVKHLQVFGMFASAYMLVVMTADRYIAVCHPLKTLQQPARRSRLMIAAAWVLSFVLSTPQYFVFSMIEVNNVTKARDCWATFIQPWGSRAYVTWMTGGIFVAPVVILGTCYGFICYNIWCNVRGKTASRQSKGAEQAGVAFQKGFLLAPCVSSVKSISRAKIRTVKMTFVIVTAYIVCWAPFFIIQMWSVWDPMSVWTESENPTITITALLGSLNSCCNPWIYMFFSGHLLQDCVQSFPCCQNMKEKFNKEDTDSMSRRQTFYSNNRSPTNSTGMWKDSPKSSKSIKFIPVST
# Molecular target: Vasopressin V1a receptor (Homo sapiens) (UniProt P37288)
# Assay: V1R activation via calcium rise – fluorescence, CHO-V1R cells, counter-screen for OXTR agonist project, primary screen (AID 2797);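 also: signal is peak over basal fluorescence ratio across a 100 second FLIPR read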
# Settings: Fluo-8 calcium fluorescence, agonist mode, at 3 µM, hits give high values, 0% DMSO, 100% 3 nM vasopressin
row,Compound,activation
1,CC(C)C(=O)NC(Sc1ccccc1)C(Cl)(Cl)Cl (stereo unspecified),inactive: 0.03%
2,O=P(Nc1nccs1)(c1ccccc1)c1ccccc1,inactive: 0.44%
3,c1nnnn1CCn1cnnn1,inactive: -0.27%
4,COc1ccc(C[C@H](C)NC[C@@H](O)c2ccc(O)c(NC=O)c2)cc1,inactive: 0.9%
5,O=P(Nc1ccccn1)(c1ccc(Br)cc1)c1ccc(Br)cc1,inactive: -0.53%
6,CN(C)C1(CNC(=O)c2ccc(Cl)c(S(N)(=O)=O)c2)CCCCC1,inactive: -0.15%
7,C[C@H]1OP(=O)(Oc2ccccc2)[C@H](O)[C@H](O)[C@H]1N=[N+]=[N-] (stereo partly specified),inactive: 0.92%
8,O=P(Nc1nc2ccccc2s1)(c1ccccc1)c1ccccc1,inactive: -1.12%
9,O=[As](O)(c1ccccc1)c1ccc(O)cc1,inactive: 1.27%
10,O=[N+]([O-])c1ccc(O)c(/C=N/Nc2ccc([N+](=O)[O-])cc2[N+](=O)[O-])c1,inactive: 5.99%
11,CC(=O)NC(SC(=S)N(C)C)C(Cl)(Cl)Cl (stereo unspecified),inactive: -0.26%
12,O=[N+]([O-])c1ncn(CCn2cnc([N+](=O)[O-])n2)n1,inactive: 0.09%
13,O=C(OC1CN2CCC1CC2)c1cccc(Cl)c1 (stereo unspecified),inactive: 1.85%
14,Nc1ccc([As](=O)(O)c2ccc([N+](=O)[O-])cc2)cc1,inactive: 0.31%
15,C(Cc1nn[nH]n1)Cc1nn[nH]n1,inactive: 0.81%
16,Cc1ccc(NP(=O)(Oc2cccc(C)c2)Oc2cccc(C)c2)nc1,inactive: 0.35%
17,CCOC(=O)NC(Sc1ccccc1)C(Cl)(Cl)Cl (stereo unspecified),inactive: -0.22%
18,c1ccc(-c2nn[nH]n2)c(-c2nn[nH]n2)c1,inactive: 1.98%
19,CCNC(=S)/N=C(\N)N[N+](=O)[O-],inactive: -0.11%
20,O=C(NC1CCS(=O)(=O)C1)NP(=S)(Oc1ccccc1)Oc1ccccc1 (stereo unspecified),inactive: 1.7%
21,CCC(=O)N1C2C3N(C(=O)CC)C1C1N(C(=O)CC)C(C(N1C(=O)CC)N3C(=O)CC)N2C(=O)CC,inactive: 0.49%
22,O=C(OC1CN2CCC1CC2)c1ccccc1 (stereo unspecified),inactive: 0.93%
23,CC(=O)NC(SC(=S)N(CC(C)C)CC(C)C)C(Cl)(Cl)Cl (stereo unspecified),inactive: 1.55%
24,Cc1ccc(OP(=O)(Nc2ccccn2)Oc2ccc(C)cc2)cc1,inactive: 4.22%
25,COC(=O)c1cc2c(s1)N=C(c1ccccc1)N(C)P2(=O)N1CCOCC1 (stereo unspecified),inactive: 0.5%
26,CN(C)C(=O)Oc1noc2ccccc12,inactive: -1.44%

row,Compound,activation
1,Cc1ccccc1OP(=O)(Nc1ccccn1)Oc1ccccc1C,inactive: 0.28%
2,CC(NC(=O)COC(=O)C(O)(c1ccccc1)c1ccccc1)c1ccccc1 (stereo unspecified),inactive: 5.05%
3,CCOc1ccc(C2=NCC(CBr)S2)cc1 (stereo unspecified),inactive: 0.77%
4,O=P1(Nc2nc3ccc(Cl)cc3s2)COc2ccccc2O1 (stereo unspecified),inactive: 0.9%
5,CC(C)(C)C(=O)NC(Sc1ccccc1)C(Cl)(Cl)Cl (stereo unspecified),inactive: -1.15%
6,C[C@@H]1C=CCP(=O)(Oc2ccccc2)O1 (stereo partly specified),inactive: -0.22%
7,C[C@H]1OP(=O)(Oc2ccccc2)C[C@@H]2O[C@@H]21 (stereo partly specified),inactive: 0.58%
8,Cc1ccccc1CN(C)C(=O)COC(=O)C(O)(c1ccccc1)c1ccccc1,inactive: 1.96%
9,CC(=O)c1ccc(N2CC2c2ccncc2)cc1 (stereo unspecified),inactive: 0.61%
10,CC(=O)Nc1ccc(Oc2c([N+](=O)[O-])cc([N+](=O)[O-])cc2[N+](=O)[O-])cc1,inactive: -0.35%
11,CC(=O)Nc1ccc([As](=O)(O)O)c(O)c1,inactive: 1.86%
12,Cc1ccc(N/C(=N/P(=O)(N2CCOCC2)N2CCOCC2)N2CCOCC2)cc1,inactive: -0.19%
13,CN(C(=O)Cc1ccc(Cl)c(Cl)c1)[C@H]1CCCC[C@H]1N1CCCC1,inactive: 0.4%
14,NC(=O)c1cc([N+](=O)[O-])cc([N+](=O)[O-])c1N,inactive: 0.49%
15,Clc1ccc(Cl)c(NC2=NCC(CBr)S2)c1 (stereo unspecified),inactive: 0.29%
16,CN1CCCC(OC(=O)C(c2ccccc2)c2ccccc2)C1 (stereo unspecified),inactive: 13%
17,Cc1ccc(OP(=O)(Nc2nccs2)Oc2ccc(C)cc2)cc1,inactive: -1.32%
18,COc1ccccc1OP(=O)(Nc1ccc(C)cn1)Oc1ccccc1OC,inactive: -0.15%
19,Cc1c2non([O-])c-2c(C)[n+](=O)[n+]1[O-],inactive: 8.37%
20,O=C(NC(Sc1ccncn1)C(Cl)(Cl)Cl)c1ccccc1 (stereo unspecified),inactive: -0.18%
21,Oc1ccccc1CNc1ccccn1,inactive: 0.63%
22,CC(C)CC(=O)NC(Sc1ccc(Cl)cc1)C(Cl)(Cl)Cl (stereo unspecified),inactive: -1.23%
23,Nc1cc(N)c2nonc2c1[N+](=O)[O-],inactive: 1.72%
24,O=P(Nc1nc2ccc(Cl)cc2s1)(c1ccccc1)c1ccccc1,inactive: 0.28%
25,O=C(O)c1ccccc1[As](=O)(O)O,inactive: 0.4%
26,CC(=O)Nc1ccc([As](=O)(O)O)cc1,inactive: 0.35%

row,Compound,activation
1,Cc1ccc(NP(=O)(Oc2ccccc2F)Oc2ccccc2F)nc1,inactive: 0.28%
2,CN(C(=O)Cc1ccc(Cl)c(Cl)c1)[C@H]1CCCC[C@@H]1N1CCCC1,inactive: -0.79%
3,CCOP(=O)(Nc1ccccc1)OCC,inactive: 0.49%
4,Cc1cc(SC(NC(=O)c2ccc(F)cc2)C(Cl)(Cl)Cl)ncn1 (stereo unspecified),inactive: 0.73%
5,O=[N+]([O-])c1cc([N+](=O)[O-])c(CCN2CCOCC2)c([N+](=O)[O-])c1,inactive: -1.17%
6,CCN(N=Nc1nonc1N)c1nonc1N,inactive: 0.15%
7,O=C(Nc1cc([As](=O)(O)O)ccc1O)c1ccccc1,inactive: -0.26%
8,O=[N+]([O-])c1ncn(CCn2ncnc2[N+](=O)[O-])n1,inactive: 0.39%
9,CC(C)(C)C(=O)NC(Sc1ccncn1)C(Cl)(Cl)Cl (stereo unspecified),inactive: 1.65%
10,O=[N+]([O-])c1cccc(NC2=NCC(CBr)S2)c1 (stereo unspecified),inactive: -0.36%
11,COc1ccc(C2=NCC(CBr)S2)cc1 (stereo unspecified),inactive: -0.67%
12,CCc1nc2c(n1)c1c(non1O)c1c2no[n+]1[O-],inactive: 8.41%
13,O=[N+]([O-])c1cc([N+](=O)[O-])c(CCNc2ccccc2)c([N+](=O)[O-])c1,inactive: -1.02%
14,Cc1ccc(NP(=O)(Oc2ccccc2)Oc2ccccc2)nc1,inactive: -1.06%
15,O=[N+]([O-])c1cccc2n[nH]nc12,inactive: 0.23%
16,CC(=O)N1C2C3N(C(C)=O)C1C1N(C(C)=O)C(C(N1C(C)=O)N3C(C)=O)N2C(C)=O,inactive: 0.92%
17,CCN(/C(=N/P(=O)(N1CCOCC1)N1CCOCC1)N1CCOCC1)c1ccc(OC)cc1,inactive: 0.07%
18,C[N+]1=C2C=CC=CC=C2SC12C([N+](=O)[O-])=CC([N+](=O)[O-])=C[C-]2[N+](=O)[O-] (stereo unspecified),inactive: 3.12%
19,Nc1ccc([As](=O)(O)c2ccc(N)cc2)cc1,inactive: -0.05%
20,CC1CCN(C(=O)Oc2c(Cl)cc(Cl)c3cccnc23)CC1,inactive: -1.5%
21,CN(C)C(=O)OCCc1n(C)cc[n+]1C,inactive: -0.16%
22,CC(C)=N/N=C(\N)N[N+](=O)[O-],inactive: 1.76%
23,COP1(=S)c2c(C)nn(CCC#N)c2N=C(c2ccc(F)cc2)N1C (stereo unspecified),inactive: -0.01%
24,O=C(Nc1ccncc1[N+](=O)[O-])c1ccc([N+](=O)[O-])cc1[N+](=O)[O-],inactive: 1.6%
25,O=C(COc1ccccc1)OC1CN2CCC1CC2 (stereo unspecified),inactive: 0.54%
26,O=C(OC1CN2CCC1CC2)c1cccc([N+](=O)[O-])c1 (stereo unspecified),inactive: -0.42%

row,Compound,activation
1,CCOC(=O)c1ccc(NC(=O)C(C)(CCl)SC)cc1 (stereo unspecified),inactive: -0.41%
2,CCC(C)N(CC(C)C)C(=S)SC(NC(C)=O)C(Cl)(Cl)Cl (stereo unspecified),inactive: -0.56%
3,CCOC(=O)Nc1ccc([As](=O)(O)O)c(O)c1,inactive: 0.44%
4,Cc1cc(SC(NC(=O)c2ccccc2)C(Cl)(Cl)Cl)nc(C(C)C)n1 (stereo unspecified),inactive: 0.11%
5,CCOC(=O)Nc1cccc([As](=O)(O)O)c1,inactive: 0.39%
6,O=P(Nc1ccccn1)(c1cccc2ccccc12)c1cccc2ccccc12,inactive: 1.91%
7,Cc1cc(SC(NC=O)C(Cl)(Cl)Cl)ncn1 (stereo unspecified),inactive: -0.38%
8,COc1cc(C(=O)NCC2(N3CCOCC3)CCCCC2)ccc1OCC(C)C,inactive: -0.8%
9,C[As](=O)(O)c1cccc(C(=O)O)c1,inactive: 0.5%
10,O=[As](O)(c1ccc(O)cc1)c1ccccc1O,inactive: 0.77%
11,CC(Cc1ccc(O)cc1)NCC(O)c1cc(O)cc(O)c1 (stereo unspecified),inactive: 0.98%
12,Cc1ccc(OP(=O)(Nc2ccc([N+](=O)[O-])cn2)Oc2ccc(C)cc2)cc1,inactive: -0.66%
13,Cc1ccc2nc3c(c(C)c2c1)CC(C(Cl)Cl)S3 (stereo unspecified),inactive: -1.51%
14,ClCCSc1nnc(-c2cccnc2)o1,inactive: 1.29%
15,CC(C)c1ccc(OP(=O)(Nc2ccccn2)Oc2ccccc2F)cc1 (stereo unspecified),inactive: -1.35%
16,O=[N+]([O-])c1cc([N+](=O)[O-])c(-c2ccn[nH]2)s1,inactive: 0.71%
17,CCN(CC)C(=S)SC(NC=O)C(Cl)(Cl)Cl (stereo unspecified),inactive: 1.48%
18,CC(C)NC(=O)NP(=O)(Oc1ccccc1)Oc1ccccc1,inactive: 1.16%
19,Cc1c2c(nc3ccccc13)SC(C(Cl)Cl)C2 (stereo unspecified),inactive: -1.51%
20,Cc1cc(=O)[nH]c(N[N+](=O)[O-])n1,inactive: 1.44%
21,O=C(OC1CN2CCC1CC2)C12CC3CC(CC(C3)C1)C2 (stereo unspecified),inactive: 1.5%
22,COc1cc(I)ccc1[As](=O)(O)O,inactive: 0.06%
23,COc1ccc2nc(NP(=O)(c3ccccc3)c3ccccc3)sc2c1,inactive: -0.82%
